# Calls of active or inactive are those of the source. The rule behind the calls is not given here.
# Columns and labels:
# MV4-11 [1] = assay: Induction of morphological changes in human MV4-11 cells assessed as appearance of segmented nuclei at 30 nM measured after 240 hrs by wright-giemsa staining based analysis; type: functional, cell-based
# MV4-11 [2] = assay: Induction of morphological changes in human MV4-11 cells assessed as reduction in nuclear to cytoplasmic ratio at 30 nM measured after 240 hrs by wright-giemsa staining based analysis; type: functional, cell-based
structure (smiles),measurement,setting,value
COc1ccc(-c2c(-c3ccc(C#N)c(F)c3)nc(N3CCC(N)CC3)n(C)c2=O)cc1F [PULRODEMSTAT],Activity,MV4-11 [1],Active
same,Activity,MV4-11 [2],Active

# Source: ChEMBL document CHEMBL6074676, “Optimization and Biological Evaluation of Novel 1H-Pyrrolo[2,3-c]pyridin Derivatives as Potent and Reversible Lysine Specific Demethylase 1 Inhibitors for the Treatment of Acute Myelogenous Leukemia” (J Med Chem, 2024)
